Experimental data taken from patent US9532519B2, “Plant growth regulator and use thereof” (Japan Science and Technology Agency, priority 2006, dated 2017).
Only a part of the results on these compounds is given; other tests are left out.

Test system: transformants of Arabidopsis to which a gene encoding gFBA was introduced and wild-type Arabidopsis (Columbia; Col)
Assay: Ammonium nitrate fertilization of gFBA transformants and wild-type Arabidopsis
Settings: any of the plants

ammonium nitrate
whole amount of biomass and seed weight (0, 3, 9 or 18 mM ammonium nitrate, 25 mL per three individuals one time a week): increased as concentration of ammonium nitrate used as a fertilizer increased
harvest index (3 mM- and 9 mM-ammonium nitrate): the harvest index increased
harvest index (18 mM-ammonium nitrate): dropped lower than the harvest index in a case of using no fertilizer
concentration at which the effect on biomass and seed weight was saturated: 18 mM
concentration at which the increase of biomass and seed weight slowed down: 9 mM
